Reference: ChEMBL document CHEMBL3085673, “The design of a novel series of muscarinic receptor antagonists leading to AZD8683, a potential inhaled treatment for COPD” (Bioorg Med Chem Lett, 2013)

Assay: Plasma protein binding in human
Type: ADME, cell-free

SMILES	PPB
O=C(O[C@H]1CN2CCC1CC2)C1(c2cccs2)CCCCCC1	95%
O=C(O[C@H]1CN2CCC1CC2)C1(c2ccccc2)CCCCCC1	95%
